This note sets out measurements from article PMC5818262 (ACS chemical biology, 2012).

This series relates to CC(=O)O. Put plainly: purified protein.

Usually Km stands for the substrate concentration at which the rate is half of its maximum. In general, kcat refers to the number of substrate molecules converted per active site and unit of time at saturation. Usually kcat/Km stands for the turnover number divided by the Michaelis constant. As for ACS (E. coli) (Escherichia coli K-12), the Michaelis-Menten constant (Km) stood at 6 ± 1 µM, the turnover number (kcat) came out at 1.04 s⁻¹ and the kcat/Km stood at 170000 M⁻¹ s⁻¹.

“ACS (S. cattleya) (Streptantibioticus cattleyicolor NRRL 8057 = DSM 46488)”: the Km worked out at 9 ± 1 µM, the kcat was found to be 40 s⁻¹ and the kcat/Km was 4.4e+06 M⁻¹ s⁻¹.
